Here are results for 2 molecules from paper PMC8105289 (European journal of medicinal chemistry, 2021).

Data set [1] can be described thus: Parallel artificial membrane permeability assay. The conditions noted are these: log of the apparent permeability coefficient.
Data set [2] is described as follows: logD7.4 by shake-flask method. The conditions noted are these: n-octanol/aqueous buffer pH 7.4; shake-flask assay run by Analiza.
Test in data set [3]: not given
The source holds these as a separate data set.

Like-named read-outs stand apart in the source and are kept apart here. Marks after values point to notes of the source that are not given here.

With `CN(C)S(=O)(=O)Nc1cc(-c2ccccc2)on1` [Compound 29, N-(5-Phenylisoxazol-3-yl)-N,N-dimethylaminesulfonamide], the “PAMPA logPapp” value in data set [1] is reported as −5.54.
On to “cis-N-(1-Oxido-3-phenethylthietan-3-yl)benzenesulfonamide [Compound 22]”, for which the “% Stability aq. buffer pH 7.4–7.6” value was determined as 90.3%. Further, in data set [2], the logD7.4 was 0.76^†. In addition, in data set [3], the “PAMPA % retention (membrane retention)” value came out at 5.07E–2%, the “PAMPA Pe (effective permeability)” value is on record as 2.91E–6 cm/s and the “PAMPA logPapp” value was −5.54.
